Reference: paper PMC12138102 (Acta Pharmaceutica Sinica. B, 2025)

Amino acid sequences for entries named in this document (tags omitted). Residues count along the entry.
UniProt P06276, 29-602: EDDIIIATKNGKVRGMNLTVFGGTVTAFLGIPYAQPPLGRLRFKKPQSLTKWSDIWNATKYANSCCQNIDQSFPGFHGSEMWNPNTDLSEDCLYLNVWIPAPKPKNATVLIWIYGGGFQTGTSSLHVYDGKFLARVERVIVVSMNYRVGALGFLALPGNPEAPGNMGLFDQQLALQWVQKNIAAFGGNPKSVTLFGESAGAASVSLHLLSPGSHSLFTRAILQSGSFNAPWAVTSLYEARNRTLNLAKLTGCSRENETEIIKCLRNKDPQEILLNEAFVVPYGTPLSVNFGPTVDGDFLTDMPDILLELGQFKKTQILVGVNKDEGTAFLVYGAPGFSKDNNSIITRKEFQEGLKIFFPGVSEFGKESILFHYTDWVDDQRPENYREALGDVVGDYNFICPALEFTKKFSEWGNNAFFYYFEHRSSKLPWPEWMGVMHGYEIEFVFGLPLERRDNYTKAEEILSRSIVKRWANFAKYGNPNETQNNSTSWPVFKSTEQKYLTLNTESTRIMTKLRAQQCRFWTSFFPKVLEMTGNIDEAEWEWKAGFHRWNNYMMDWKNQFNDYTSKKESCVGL

Target: huBuChE (Homo sapiens, UniProt P06276)
Experiment: BuChE inhibition, Ellman's assay
Type: biochemical
Details: read-out: IC50 ± SD huBuChE

CCN(C)C(=O)Oc1cccc([C@H](C)N(C)C)c1 [Rivastigmine, reference compound]
IC50: 6.2 ± 0.21 µM
